Apparent affinities of Ab-14 variants for a coronavirus HR2 peptide

The measurements come from Li et al. 2023 (doi:10.1038/s41467-023-39022-2) through the FLAb antibody collection.

All variants were tested on one target, the spike HR2 peptide PDVDLGDISGINAS (SARS-CoV-2).

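These sequences belong to a second round, designed from the earlier measurements on random variants of the parent. Group labels follow the data file (En: ensemble of fine-tuned language models; GP: Gaussian process model; HC: hill climbing; Gen: genetic algorithm; Gibbs: Gibbs sampling; a sequence that several methods proposed may carry one label only). Affinity was read by AlphaSeq, a pooled yeast mating assay with surface-displayed partners. The frequency of each diploid, read from paired DNA barcodes, reflects how well the two displayed proteins bind. Each replicate has its own calibration line, from reference interactions of the BCL2 family. Mating was done six times.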

Ab-14 is the parent antibody, in scFv form: VH, then a (GGGGS)3 linker, then VL. The heavy chain is unchanged in all variants.
VH: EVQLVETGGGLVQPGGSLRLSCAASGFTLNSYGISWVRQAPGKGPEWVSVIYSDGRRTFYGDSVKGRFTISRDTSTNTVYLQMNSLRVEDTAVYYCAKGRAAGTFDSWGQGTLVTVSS
VL: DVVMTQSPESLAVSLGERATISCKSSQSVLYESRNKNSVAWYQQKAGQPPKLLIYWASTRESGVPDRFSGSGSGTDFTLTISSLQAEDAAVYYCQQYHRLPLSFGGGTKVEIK

Each variant is given by its three light chain CDRs, as the data file delimits them; those of the parent are KSSQSVLYESRNKNSVA, WASTRES, QQYHRLPLS. Variants here have more than six changes. Values are log10 of the apparent Kd in nM; lower means stronger binding. Averages over replicates are reported, and they cover detected replicates only. Where no diploid with the target was found in any replicate, the entry reads "no signal": below detection, most likely a poor binder, though not proof of it. As a blank, each scFv also met three strains without target: over all light chain designs, 4% of these pairings were detected, typically at 2.64 and seldom below 1.59. The authors' rule: three or more of the six replicates give a measured affinity, fewer mean a poor binder. The range of this assay differs from that of the first round, and the authors advise against merging the two.

With LISGVWDYGSRNYNSVA / QTSTRES / QQYDRLPLI [En_HC] the result was 0.77 (6 of 6 replicates). The variant KISQMSTIESIVHNSVA / QTSTRES / QQYDRLPLS [En_HC] gave 1.14 (6 of 6 replicates). The variant KFEGSEGYESRNKNSVA / EASHRMS / QQYHRLPLS [GP_Gibbs] showed -0.16 (6 of 6 replicates). With KFDQEWLYESRNKNSVA / HASQRCS / QQYHRLPLS [GP_Gibbs] the result was 0.29 (6 of 6 replicates). The variant KLDMFIPSQWEWDASIA / GTTLRCT / QDYARLPLS [En_Gibbs] showed 1.67 (6 of 6 replicates). The variant KVDQSQLYENRMKNSVA / DASLRES / QQYHRLPLS [GP_Gibbs] gave -0.09 (6 of 6 replicates). The variant TLYGLSMSMSKNKNSVA / EMTTREK / QQYDRLPLI [En_Gen] gave 0.55 (6 of 6 replicates). For KLSMVTGHMSMAKNNVA / EMETREK / QQYNRLPLS [En_Gen], the assay gave -0.08 (6 of 6 replicates).

For NITEIFDNMGDQRSNVA / NGETLFH / QQYDRLPFL [En_Gibbs], the assay gave 0.59 (6 of 6 replicates). With FISQSVEYESRDKNSVA / NANTRLS / QQYHRLPLS [GP_Gibbs] the result was 0.68 (6 of 6 replicates). The variant KLSQVTEYEMHNKDNVA / DLTTRGS / QDYHRLPLS [En_HC] showed 0.34 (6 of 6 replicates). The variant MVNQHDEGFKGVKDNIA / NAETREG / QHYGRLPLS [En_Gibbs] gave 1.14 (6 of 6 replicates). The variant KVQNHSSGTLNDKNAVA / EDKEVAV / QQYVRLPLI [En_Gibbs] gave 2.36 (1 of 6 replicates). With KLSVSYLFEQLEKNSIA / ENSTREK / QHYHRLPLS [En_HC] the result was 2.80 (4 of 6 replicates). The variant QTTSFYQHGDDQNQAMA / DVTMRDQ / QQYSRLPLS [En_Gibbs] gave 0.71 (6 of 6 replicates). For SLSMFMDNYNQLYDSVA / DTANIDI / QQYDRLPLS [En_Gibbs], the assay gave no signal (0 of 6 replicates).

With QLHAYTQGFKRADGNIA / DISYRAI / QQYGRLPLS [En_Gibbs] the result was 1.27 (6 of 6 replicates). The variant SISGFMKSSLAHHNSVA / DMTNRED / QQYDRLPLS [En_Gen] gave -0.16 (6 of 6 replicates). The variant KVSEFMRGLMMRKDSIA / DNETRNS / QQYDRLPLS [En_Gen] showed 1.99 (5 of 6 replicates). The variant KVSQSVCYEDRLKNNVA / NASDRMS / QQYHRLPLS [GP_Gibbs] showed 0.18 (6 of 6 replicates). With AFSGSHLYESRMKNSVA / NASTREE / QQYHRLPLS [GP_Gibbs] the result was 0.14 (6 of 6 replicates). The variant KLDQKNRWNGMANYNVA / ASNTRVD / QQYHRLPLI [En_Gibbs] gave 0.86 (6 of 6 replicates). For HISMMVGTKGYCKNSVA / NAETRED / QQYHRLPLS [En_HC], the assay gave 1.60 (6 of 6 replicates). With MISQLFMYGSRNYNSVA / QASTREE / QQYDRLPLI [En_HC] the result was 1.05 (6 of 6 replicates).

With TVTQMAMTGMMSKRSVA / NAETREY / QQYHRLPLI [En_Gen] the result was 1.35 (3 of 6 replicates). The variant TISGVMQTQSHSKNNVA / EMTTREK / QQYVRLPLA [En_Gen] gave 0.03 (6 of 6 replicates). The variant ILSQSVLMGSHLKNSVA / QASTRFS / QQYFRLPLM [En_HC] gave 0.85 (3 of 6 replicates). With TITTSMRYESSLKNAIA / NAQTRES / QQYHRLPIS [En_HC] the result was -0.08 (6 of 6 replicates). With KLTEMFQHTSKNKSNIA / ERSTREE / QQYHHLPLS [En_HC] the result was 1.04 (6 of 6 replicates). With LWSQSELLESRNHNSVA / DASTRMD / QQYHRLPLS [GP_Gibbs] the result was 0.01 (6 of 6 replicates). The variant NVGQLMDGATRNKNSVA / HQSTRED / QHYHRLPLS [En_HC] gave 1.26 (6 of 6 replicates). With MIFYGQERDIAHESSIA / NGMARVK / QQYHRLPLS [En_Gibbs] the result was 1.52 (6 of 6 replicates).

For KISQSMLYEPRNSNSVA / NASTRLR / QQYHRLPLS [GP_Gibbs], the assay gave 0.44 (6 of 6 replicates). For KLEYWADGFGQNDNSVA / HMESVRD / QQYHRLPLA [En_Gibbs], the assay gave 2.49 (2 of 6 replicates). With KLVQFMNRGTHHTSNIA / DAQTRLD / QQYARLPLA [En_Gen] the result was 0.77 (6 of 6 replicates). The variant TIGAQLMYGMRNRSNVA / EVSERLN / QQYDRLPLL [En_Gen] gave 2.00 (6 of 6 replicates). With KISMSYRYESQAKNSIA / EMTTRAE / QSYHRLPLS [En_HC] the result was 0.53 (6 of 6 replicates). The variant KLMNSLEAFKQWEDNVA / EVEHKVA / QQYYHLPLT [En_Gibbs] gave 0.63 (1 of 6 replicates). With TISTSMRYESSLKNAIA / NAQTREY / QQYHRLPLS [En_HC] the result was 1.92 (6 of 6 replicates). The variant KISNLVNFEGKNKNSVA / QMSTREN / QQYDRLPLS [En_HC] gave 0.26 (6 of 6 replicates).

The variant QIAMEMYHDLNDAQNVA / DAMTCIP / QQYSRLPLS [En_Gibbs] gave 1.16 (1 of 6 replicates). The variant KVEQSNDYESRNKNSVA / NASQRLK / QQYHRLPLS [GP_Gibbs] gave -0.12 (6 of 6 replicates). For NLSWKTIMQNMDSYAVA / QTEQREA / QQYAILPLS [En_Gibbs], the assay gave no signal (0 of 6 replicates). The variant RIAEQYFEYMHNINNVA / EAECKAY / QQYAHLPLL [En_Gibbs] showed 1.25 (6 of 6 replicates). With KLSQQDWYESRNCNSVA / QASTREQ / QQYHRLPLS [GP_Gibbs] the result was 0.92 (6 of 6 replicates). With HITYGMNVAGRHSSSIA / QAEEREK / QQYDRLPLS [En_Gen] the result was 0.19 (6 of 6 replicates). With TLSHMSGLEAVKHNSVA / ENSTREK / QQYDRLPLA [En_Gen] the result was no signal (0 of 6 replicates). For KLQQSVGYESRNQNAVA / AASTREE / QQYHRLPLS [GP_Gibbs], the assay gave 0.10 (6 of 6 replicates).